In ChEMBL document CHEMBL1811796, “Requirements for mammalian carboxylesterase inhibition by substituted ethane-1,2-diones” (Bioorg Med Chem, 2011) one finds Ki data, which are given here for one compound.

This assay addresses T1, Cocaine esterase (Homo sapiens, UniProt O00748).
T1 sequence (O00748 whole entry): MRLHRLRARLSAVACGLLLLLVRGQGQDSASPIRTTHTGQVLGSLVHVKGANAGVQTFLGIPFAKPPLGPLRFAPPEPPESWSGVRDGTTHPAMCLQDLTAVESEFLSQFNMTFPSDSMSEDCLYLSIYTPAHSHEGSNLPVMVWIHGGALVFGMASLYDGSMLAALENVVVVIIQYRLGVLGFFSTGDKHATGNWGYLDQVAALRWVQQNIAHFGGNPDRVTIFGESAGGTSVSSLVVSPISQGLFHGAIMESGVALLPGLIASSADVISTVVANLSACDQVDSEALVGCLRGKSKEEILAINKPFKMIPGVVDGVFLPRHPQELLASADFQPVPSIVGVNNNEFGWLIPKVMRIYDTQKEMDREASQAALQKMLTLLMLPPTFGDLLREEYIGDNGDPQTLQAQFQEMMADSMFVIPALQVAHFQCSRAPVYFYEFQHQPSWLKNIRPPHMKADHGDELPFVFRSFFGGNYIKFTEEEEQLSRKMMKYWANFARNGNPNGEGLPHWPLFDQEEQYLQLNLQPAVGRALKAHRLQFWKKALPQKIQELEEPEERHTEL
Kind of assay: Inhibition of human intestinal carboxylesterase using o-nitrophenyl acetate as substrate after 5 mins by spectrophotometry.

As a reminder, the Ki is the equilibrium dissociation constant of an inhibitor or competing ligand from its target. Low values mean tighter binding, high ones weaker binding. In turn, `CCCC(=O)C(=O)CCC` gave a Ki of 4.67 µM.
